Target: T1, hVAChT (Homo sapiens, UniProt Q16572)
T1 sequence (Q16572 1-532): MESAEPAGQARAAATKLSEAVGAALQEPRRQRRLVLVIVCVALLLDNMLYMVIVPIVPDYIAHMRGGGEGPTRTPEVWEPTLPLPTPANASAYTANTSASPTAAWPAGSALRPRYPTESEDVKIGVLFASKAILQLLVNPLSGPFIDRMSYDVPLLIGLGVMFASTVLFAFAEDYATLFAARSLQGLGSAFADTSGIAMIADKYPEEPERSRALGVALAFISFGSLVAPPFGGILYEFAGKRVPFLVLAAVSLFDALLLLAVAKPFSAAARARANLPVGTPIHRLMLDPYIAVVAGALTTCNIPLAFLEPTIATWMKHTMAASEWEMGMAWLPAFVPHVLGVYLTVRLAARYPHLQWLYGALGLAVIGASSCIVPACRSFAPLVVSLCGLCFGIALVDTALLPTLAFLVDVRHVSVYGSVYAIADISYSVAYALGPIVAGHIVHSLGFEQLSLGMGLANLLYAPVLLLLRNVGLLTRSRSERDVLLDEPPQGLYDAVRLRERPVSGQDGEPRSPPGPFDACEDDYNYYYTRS
Assay: Competitive binding assay with
Conditions: radioligand (-)-[^3H]TZ659 2 nM, test ligands 0.1 nM to 10 μM, 60 min, 25 °C

## O=C(c1ccc(F)cc1)c1cccc2c1C[C@@H](N1CCC(c3ccccc3)CC1)[C@H](O)C2 [FBBV]
  Ki: 7.17 ± 0.66 nM

Reference: paper PMC4369186 (European journal of pharmacology, 2015)
